Measurements: US20190046536A1, “Combination Therapy” (Eli Lilly and Company, priority 2016, published 2019)

Tested on: deposited Aβ
Experiment: Ex vivo target engagement, immunohistochemistry on fixed PDAPP brain sections
Format: binding
Conditions: cryostat coronal sections from aged PDAPP mice (25-month old); Antibody I or II at 20 μg/mL; biotinylated 3D6 as positive control
From the text: Secondary HRP reagents specific for human IgG are employed and the deposited plaques are visualized with DAB-Plus (DAKO). Biotinylated murine 3D6 antibody followed by Step-HRP secondary is used as a positive control.

Molecule | labeling of deposited Aβ in PDAPP hippocampus
Antibody I: anti-N3pGlu Abeta antibody with LC of SEQ ID NO: 12 and HC of SEQ ID NO: 11 (antibody) heavy: QVQLVQSGAEVKKPGSSVKVSCKASGYTFTDYYINWVRQAPGQGLEWMGWINPGSGNTKYNEKFKGRVTITADESTSTAYMELSSLRSEDTAVYYCTREGETVYWGQGTLVTVSSASTKGPSVFPLAPSSKSTSGGTAALGCLVKDYFPEPVTVSWNSGALTSGVHTFPAVLQSSGLYSLSSVVTVPSSSLGTQTYICNVNHKPSNTKVDKKV[letters of human IgG1 Fc left out] light: DVVMTQSPLSLPVTLGQPASISCKSSQSLLYSRGKTYLNWFQQRPGQSPRRLIYDVSKLDSGVPDRFSGSGSGTDFTLKISRVEAEDVGVYYCVQGTHYPFTFGQGTKLEIKRTVAAPSVFIFPPSDEQLKSGTASVVCLLNNFYPREAKVQWKVDNALQSGNSQESVTEQDSKDSTYSLSSTLTLSKADYEKHKVYACEVTHQGLSSPVTKSFNRGEC | labeled a subset of deposits
Antibody II: anti-N3pGlu Abeta antibody with LC of SEQ ID NO: 13 and HC of SEQ ID NO: 11 (antibody) heavy: QVQLVQSGAEVKKPGSSVKVSCKASGYTFTDYYINWVRQAPGQGLEWMGWINPGSGNTKYNEKFKGRVTITADESTSTAYMELSSLRSEDTAVYYCTREGETVYWGQGTLVTVSSASTKGPSVFPLAPSSKSTSGGTAALGCLVKDYFPEPVTVSWNSGALTSGVHTFPAVLQSSGLYSLSSVVTVPSSSLGTQTYICNVNHKPSNTKVDKKV[letters of human IgG1 Fc left out] light: DIQMTQSPSTLSASVGDRVTITCKSSQSLLYSRGKTYLNWLQQKPGKAPKLLIYAVSKLDSGVPSRFSGSGSGTEFTLTISSLQPDDFATYYCVQGTHYPFTFGQGTKLEIKRTVAAPSVFIFPPSDEQLKSGTASVVCLLNNFYPREAKVQWKVDNALQSGNSQESVTEQDSKDSTYSLSSTLTLSKADYEKHKVYACEVTHQGLSSPVTKSFNRGEC | labeled a subset of deposits
